Source: patent US20050227994A1, “Decomposition inhibitor for extracellular matrix of cartilage” (Shionogi & Co., Ltd., priority 2002, published 2005)

Key:
[1] = tested on: cartilage disks of juvenile rabbits, IL-1 stimulated GAG release; assay: Cartilage culture test (IL-1 induced GAG release); settings: rabbit cartilage disks, IL-1 (4 ng/ml) plus test compound, released GAG after 4 days
Method: Cartilage disks (2 mm in diameter) were prepared from the cartilage of juvenile rabbits (3 weeks). Cartilage disks were transferred and cultured individually in the wells of a 48-well tissue culture plate containing DMEM/10% FCS for over 3 days at 37° C. In the night before the test, the medium of DMEM was changed to that not containing FCS. Next morning, IL-1 (4 ng/ml) and a test compound were added to the plate. It is provided that some wells of a plate contain only IL-1 (not containing test compound) and that some wells are vehicle (not containing IL-1 and test compound). After 4 days from the IL-1 addition, the amount of released glycosaminoglycan (GAG) was measured after collecting culture supernatant and cartilage disks.
Quantitation of GAG release was as follows; the weight of the cartilage disk was measured, then 200 μl of a papain digestion buffer solution (1 mM EDTA, 2 mM DTT, 20 mM Tris, (pH 7.0), Papain (300 μg/ml)) was added to each well and the plate containing the digestive solution was incubated for 2 h at 65° C. 50 μl of 100 mM Iodoacetatic acid (pH 7.0) was added for stopping the digestion. The extracts of cartilage are centrifuged at 12000 rpm for 5 min. 20 μl of centrifuged supernatant or culture supernatant was transferred in the wells of a 96-well assay plate. The amount of released GAG in the transferred solution was quantitated by using a proteoglycan & glycosaminoglycan assay kit (Blyscan, Funakoshi Co., Ltd, Tokyo, Japan).

MMP-13 = MMP-13 (Homo sapiens, UniProt P45452); assay: Assay for inhibitory activities on MMP-13; settings: read-out: MMP-13 (IC50μM); catalytic domain, substrate MOCAc-Pro-Leu-Gly-Leu-A2Pr(DNP)-Ala-Arg-NH2

Structure (SMILES) | GAG [1] | IC50 (MMP-13)
O=C(O)[C@@H](Cc1c[nH]c2ccccc12)NS(=O)(=O)c1ccc(-c2cc3ccccc3s2)s1 | 31.0 | 0.0319 µM
O=C(O)[C@@H](Cc1ccccc1)NS(=O)(=O)c1ccc(-c2cc3ccccc3s2)s1 | 16.2 | 0.00771 µM
O=C(O)[C@H](Cc1ccccc1)NS(=O)(=O)c1ccc(-c2cc3ccccc3o2)s1 | 47.7 | 0.498 µM
O=C(O)[C@@H](Cc1ccccc1)NS(=O)(=O)c1ccc(-c2ccon2)s1 | 47.6 | 1.1 µM
